From paper PMC9897792, “Discovery of novel 2-(4-(benzyloxy)-5-(hydroxyl) phenyl) benzothiazole derivatives as multifunctional MAO-B inhibitors for the treatment of Parkinson’s disease” (Journal of Enzyme Inhibition and Medicinal Chemistry, 2023)

Protein sequences, listed by entry. Tags and fused reporters are not part of them.
UniProt P21397, whole entry: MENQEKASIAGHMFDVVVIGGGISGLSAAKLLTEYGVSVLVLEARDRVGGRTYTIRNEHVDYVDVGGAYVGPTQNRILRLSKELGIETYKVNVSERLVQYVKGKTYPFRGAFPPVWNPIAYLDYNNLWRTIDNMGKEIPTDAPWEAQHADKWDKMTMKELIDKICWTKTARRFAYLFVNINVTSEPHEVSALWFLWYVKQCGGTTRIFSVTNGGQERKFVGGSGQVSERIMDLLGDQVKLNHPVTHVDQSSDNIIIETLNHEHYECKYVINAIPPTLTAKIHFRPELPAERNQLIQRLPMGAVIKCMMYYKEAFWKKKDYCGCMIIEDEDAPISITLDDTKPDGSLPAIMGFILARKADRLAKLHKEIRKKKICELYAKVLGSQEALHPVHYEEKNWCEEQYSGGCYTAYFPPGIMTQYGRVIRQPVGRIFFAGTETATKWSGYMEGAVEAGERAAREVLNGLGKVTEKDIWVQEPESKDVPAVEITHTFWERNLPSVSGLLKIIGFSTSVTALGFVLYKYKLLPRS

Target: MAO-A (Homo sapiens, UniProt P21397)
Assay: MAO-A inhibition, kynuramine method
Assay type: biochemical

SMILES: CC(C)NNC(=O)c1ccncc1 [Iproniazid, reference compound]
- IC50: 1870 ± 20 nM
